From US9815787B2, “Sulfonamide derivative or pharmaceutically acceptable acid addition salt thereof” (UNIVERSITY OF TSUKUBA, priority 2013, dated 2017)

Protein sequences, listed by entry. Tags and fused reporters are not part of them.
UniProt O43614, whole entry: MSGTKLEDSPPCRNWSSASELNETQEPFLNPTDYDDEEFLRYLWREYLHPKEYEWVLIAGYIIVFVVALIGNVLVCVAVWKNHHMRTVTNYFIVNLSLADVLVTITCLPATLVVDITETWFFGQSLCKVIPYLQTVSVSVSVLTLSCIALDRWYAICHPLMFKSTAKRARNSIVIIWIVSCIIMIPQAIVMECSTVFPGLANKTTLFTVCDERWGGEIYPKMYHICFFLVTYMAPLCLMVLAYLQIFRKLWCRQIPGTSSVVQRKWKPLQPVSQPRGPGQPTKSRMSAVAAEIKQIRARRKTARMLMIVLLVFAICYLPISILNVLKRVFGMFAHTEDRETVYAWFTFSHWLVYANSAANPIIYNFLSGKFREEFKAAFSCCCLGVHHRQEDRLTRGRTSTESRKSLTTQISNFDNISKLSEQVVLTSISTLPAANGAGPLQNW

Target: OX2R (Homo sapiens, UniProt O43614)
Test: Evaluation of agonist activity against OX2R (CHOOX2R cells, Fura2AM fluorescence, FDSS3000)
Type: cell-based
Settings: for EC50: OX2R agonist activity; for EC50 / Response (0.1 μM (%)) / Response (1.0 μM (%)) / Response (10 μM (%)): CHOOX2R cells; for Emax (%): conversion with orexin-A as full agonist (maximum agonist activity 100%); for Response (0.1 μM (%)): test compound 0.1 μM; for Response (0.1 μM (%)) / Response (1.0 μM (%)) / Response (10 μM (%)): relative to orexin-A as full agonist (100%); for Response (1.0 μM (%)): test compound 1.0 μM; for Response (10 μM (%)): test compound 10 μM

SMILES | EC50 [nM] | Emax (%) | Response (0.1 μM (%)) [%] | Response (1.0 μM (%)) [%] | Response (10 μM (%)) [%]
COc1ccc(-c2cccc(C(=O)N(C)C)c2)cc1S(=O)(=O)Nc1cccc(NCCNC(=O)c2cccnc2OC)c1 | 100 | 94 | 18 | 89 | 91
COc1cccc(C(=O)NCCNc2cccc(NS(=O)(=O)c3cc(-c4cccc(C(=O)N(C)C)c4)ccc3OC)c2)n1 | 360 | 87 | 44 | 91 | 84
